In IntAct's records for PubMed 17632056:

B1: Myc proto-oncogene protein (Homo sapiens), P01106 (parent)
chain: MDFFRVVENQQPPATMPLNVSFTNRNYDLDYDSVQPYFYCDEEENFYQQQQQSELQPPAPSEDIWKKFELLPTPPLSPSRRSGLCSPSYVAVTPFSLRGDNDGGGGSFSTADQLEMVTELLGGDMVNQSFICDPDDETFIKNIIIQDCMWSGFSAAAKLVSEKLASYQAARKDSGSPNPARGHSVCSTSSLYLQDLSAAASECIDPSVVFPYPLNDSSSPKSCASQDSSAFSPSSDSLLSSTESSPQGSPEPLVLHEETPPTTSSDSEEEQEDEEEIDVVSVEKRQAPGKRSESGSPSAGGHSKPPHSPLVLKRCHVSTHQHNYAAPPSTRKDYPAAKRVKLDSVRVLRQISNNRKCTSPRSSDTEENVKRRTHNVLERQRRNELKRSFFALRDQIPELENNEKAPKVVILKKATAYILSVQAEEQKLISEEDLLRKRREQLKHKLEQLRNSCA

Variants of: B1
Settings: with cip2a_human CIP2A

effect of a mutation on the interaction	Variant
decreasing interaction	S77A
decreasing interaction	S77D
